Experiments:
Mus musculus [1] = assay: Antagonist activity at ORL1 receptor in CD1 (ICR) mouse assessed as reversal of WO03/10168-induced locomotor activity at 30 mg/kg, po administered 30 mins prior to WO03/10168 challenge; parameters: scale not given: the % may be the effect or the level left
Liver microsomes [2] = assay: Metabolic stability in human liver microsomes assessed as compound remaining at 1 uM after 30 mins; conditions: 0.5 h
Canis familiaris = assay: Toxicity in dog assessed as change in cardiovascular variables up to 5 mg/kg by telemetry study; conditions: in vivo, Heart
Rattus norvegicus [3] = assay: Bioavailability in fasted Sprague-Dawley rat at 3 mg/kg, iv and 10 mg/kg, po; conditions: in vivo
Liver microsomes [4] = assay: Metabolic stability in rat liver microsomes assessed as compound remaining at 1 uM after 30 mins; conditions: 0.5 h
Cytochrome P450 1A2 = Cytochrome P450 1A2 (Homo sapiens, UniProt P05177); assay: Inhibition of CYP1A2 in human liver microsomes assessed as inhibition of acetophenacetin odeethylation
Cytochrome P450 2C8 = Cytochrome P450 2C8 (Homo sapiens, UniProt P10632); assay: Inhibition of CYP2C8 in human liver microsomes assessed as inhibition of paclitaxel 6-alpha-hydroxylation
Mus musculus [5] = assay: Plasma concentration in P-gp deficient CF1 mouse at 0.3 mg/kg, sc after 1 hr; conditions: read-out: Cp, in vivo, strain CF1, Plasma
[6] = target: Voltage-gated inwardly rectifying potassium channel KCNH2 (Homo sapiens, UniProt Q12809); assay: Displacement of radiolabeled MK-499 from human ERG expressed in HEK293 cells coexpressing IKr channel protein
Cytochrome P450 3A4 = Cytochrome P450 3A4 (Homo sapiens, UniProt P08684); assay: Inhibition of CYP3A4 in human liver microsomes assessed as inhibition of testosterone 6-beta-hydroxylation
Cytochrome P450 2D6 = Cytochrome P450 2D6 (Homo sapiens, UniProt P10635); assay: Inhibition of CYP2D6 in human liver microsomes assessed as inhibition of dextrometorphan O-demethylation
Mus musculus [7] = assay: Plasma concentration in CD1 (ICR) mouse at 30 mg/kg, po after 3 hrs; conditions: read-out: Cp, in vivo, strain CD1 (ICR)
Cytochrome P450 2C9 = Cytochrome P450 2C9 (Homo sapiens, UniProt P11712); assay: Inhibition of CYP2C9 in human liver microsomes assessed as inhibition of diclofenac 4'-hydroxylation
Brain [8] = assay: Drug level in CD1 (ICR) mouse brain at 30 mg/kg, po after 3 hrs assessed per gram of brain; conditions: in vivo, strain CD1 (ICR)
Rattus norvegicus [9] = assay: Half life in fasted Sprague-Dawley rat at 1 mg/kg, iv; conditions: in vivo
[10] = Ratio of drug level in brain to plasma in CD1 (ICR) mouse at 30 mg/kg, po after 3 hrs; conditions: strain CD1 (ICR)
[11] = Ratio of drug level in brain to plasma in P-gp deficient CF1 mouse at 0.3 mg/kg, sc after 1 hr; conditions: strain CF1, Brain/Plasma
Brain [12] = assay: Drug level in P-gp deficient CF1 mouse brain at 0.3 mg/kg, sc after 1 hr assessed per gram of brain; conditions: in vivo, strain CF1, Brain
Rattus norvegicus [13] = assay: Oral bioavailability in fasted Sprague-Dawley rat at 3 mg/kg; conditions: in vivo
Rattus norvegicus [14] = assay: Volume of distribution at steady state in fasted Sprague-Dawley rat at 1 mg/kg, iv; conditions: in vivo
LLC-PK1 [15] = assay: Ratio of transcellular transport from apical to basolateral side over basolateral to apical side in pig LLC-PK1 cells expressing human L-MDR1 at 1 uM after 3 hrs; conditions: llc-pk1, 3 h
LLC-PK1 [16] = assay: Ratio of transcellular transport from apical to basolateral side over basolateral to apical side in pig LLC-PK1 cells expressing mouse L-mdr1a at 1 uM after 3 hrs; conditions: llc-pk1, 3 h

Amino acid sequences for entries named in this document (tags omitted). A change or cut given only in a name is not applied to a line headed by its entry. Residues count along the entry.
UniProt P05177, 2-516 limits assumed: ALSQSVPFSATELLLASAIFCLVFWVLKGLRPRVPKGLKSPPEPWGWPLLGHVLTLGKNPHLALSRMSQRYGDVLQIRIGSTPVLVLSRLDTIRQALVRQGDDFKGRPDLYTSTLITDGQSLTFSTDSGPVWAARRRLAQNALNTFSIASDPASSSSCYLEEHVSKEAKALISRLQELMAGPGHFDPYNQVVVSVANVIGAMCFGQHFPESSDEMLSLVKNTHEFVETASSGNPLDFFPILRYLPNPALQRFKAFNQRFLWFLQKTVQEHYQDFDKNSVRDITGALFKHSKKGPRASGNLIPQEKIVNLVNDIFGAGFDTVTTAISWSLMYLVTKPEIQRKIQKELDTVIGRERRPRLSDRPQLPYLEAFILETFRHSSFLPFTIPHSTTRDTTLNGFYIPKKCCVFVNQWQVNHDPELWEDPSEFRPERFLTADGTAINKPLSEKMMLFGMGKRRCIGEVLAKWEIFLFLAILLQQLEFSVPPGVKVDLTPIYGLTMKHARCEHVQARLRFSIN
UniProt P10632, whole entry, looked up: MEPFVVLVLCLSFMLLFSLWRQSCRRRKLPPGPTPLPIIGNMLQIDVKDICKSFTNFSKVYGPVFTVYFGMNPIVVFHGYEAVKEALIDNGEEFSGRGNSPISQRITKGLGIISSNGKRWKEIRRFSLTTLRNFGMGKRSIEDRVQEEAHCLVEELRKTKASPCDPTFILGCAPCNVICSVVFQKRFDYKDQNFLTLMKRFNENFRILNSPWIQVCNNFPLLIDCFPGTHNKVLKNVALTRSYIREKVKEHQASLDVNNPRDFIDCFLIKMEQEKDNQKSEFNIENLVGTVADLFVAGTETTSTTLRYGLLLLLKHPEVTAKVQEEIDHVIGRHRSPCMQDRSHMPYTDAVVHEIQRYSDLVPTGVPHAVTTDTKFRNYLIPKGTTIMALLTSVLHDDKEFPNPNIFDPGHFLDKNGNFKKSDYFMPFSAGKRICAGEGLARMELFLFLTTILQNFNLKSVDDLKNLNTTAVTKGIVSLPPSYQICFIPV
UniProt Q12809: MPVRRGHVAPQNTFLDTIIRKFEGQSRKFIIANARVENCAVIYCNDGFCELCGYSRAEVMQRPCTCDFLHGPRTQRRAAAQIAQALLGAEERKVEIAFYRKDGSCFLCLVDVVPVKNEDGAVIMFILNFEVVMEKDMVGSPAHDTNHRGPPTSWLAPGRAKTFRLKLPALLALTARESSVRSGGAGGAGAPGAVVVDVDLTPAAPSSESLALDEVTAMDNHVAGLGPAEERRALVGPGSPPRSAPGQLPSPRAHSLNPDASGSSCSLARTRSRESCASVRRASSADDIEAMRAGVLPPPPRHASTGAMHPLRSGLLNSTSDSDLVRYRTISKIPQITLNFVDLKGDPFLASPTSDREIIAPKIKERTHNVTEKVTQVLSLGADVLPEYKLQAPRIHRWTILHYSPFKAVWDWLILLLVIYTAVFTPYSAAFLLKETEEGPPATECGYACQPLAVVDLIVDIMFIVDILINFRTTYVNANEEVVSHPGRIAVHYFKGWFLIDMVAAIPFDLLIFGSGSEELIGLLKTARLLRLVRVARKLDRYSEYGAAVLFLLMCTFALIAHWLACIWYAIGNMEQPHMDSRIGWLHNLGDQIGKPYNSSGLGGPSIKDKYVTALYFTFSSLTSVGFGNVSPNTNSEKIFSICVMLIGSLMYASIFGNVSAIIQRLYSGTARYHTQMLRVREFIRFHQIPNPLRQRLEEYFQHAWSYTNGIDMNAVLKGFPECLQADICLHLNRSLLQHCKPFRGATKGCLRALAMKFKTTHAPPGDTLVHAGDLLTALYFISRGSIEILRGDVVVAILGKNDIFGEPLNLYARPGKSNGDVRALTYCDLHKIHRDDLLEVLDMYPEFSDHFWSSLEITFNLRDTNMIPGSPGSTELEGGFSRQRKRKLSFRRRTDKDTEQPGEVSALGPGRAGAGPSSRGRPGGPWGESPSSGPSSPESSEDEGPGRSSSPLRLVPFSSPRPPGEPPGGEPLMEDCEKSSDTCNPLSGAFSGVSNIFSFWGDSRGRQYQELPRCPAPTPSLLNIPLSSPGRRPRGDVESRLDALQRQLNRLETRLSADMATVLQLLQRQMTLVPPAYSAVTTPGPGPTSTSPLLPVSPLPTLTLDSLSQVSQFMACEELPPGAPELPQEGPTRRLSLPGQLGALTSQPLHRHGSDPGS
UniProt P08684, 2-503 limits assumed: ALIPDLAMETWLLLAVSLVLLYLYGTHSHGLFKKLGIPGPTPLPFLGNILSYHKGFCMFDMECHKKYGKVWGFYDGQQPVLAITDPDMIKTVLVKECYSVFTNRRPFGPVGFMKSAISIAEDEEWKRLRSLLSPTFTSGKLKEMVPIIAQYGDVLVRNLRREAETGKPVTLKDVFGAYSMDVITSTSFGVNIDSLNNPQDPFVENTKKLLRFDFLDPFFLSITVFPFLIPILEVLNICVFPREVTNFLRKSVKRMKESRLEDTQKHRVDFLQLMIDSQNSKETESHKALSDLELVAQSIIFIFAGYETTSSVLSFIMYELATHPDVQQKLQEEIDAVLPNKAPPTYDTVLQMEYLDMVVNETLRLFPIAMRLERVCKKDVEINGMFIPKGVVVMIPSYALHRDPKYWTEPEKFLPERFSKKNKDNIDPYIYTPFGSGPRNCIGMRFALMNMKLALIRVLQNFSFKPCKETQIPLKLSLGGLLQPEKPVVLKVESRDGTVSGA
UniProt P10635, whole entry, looked up: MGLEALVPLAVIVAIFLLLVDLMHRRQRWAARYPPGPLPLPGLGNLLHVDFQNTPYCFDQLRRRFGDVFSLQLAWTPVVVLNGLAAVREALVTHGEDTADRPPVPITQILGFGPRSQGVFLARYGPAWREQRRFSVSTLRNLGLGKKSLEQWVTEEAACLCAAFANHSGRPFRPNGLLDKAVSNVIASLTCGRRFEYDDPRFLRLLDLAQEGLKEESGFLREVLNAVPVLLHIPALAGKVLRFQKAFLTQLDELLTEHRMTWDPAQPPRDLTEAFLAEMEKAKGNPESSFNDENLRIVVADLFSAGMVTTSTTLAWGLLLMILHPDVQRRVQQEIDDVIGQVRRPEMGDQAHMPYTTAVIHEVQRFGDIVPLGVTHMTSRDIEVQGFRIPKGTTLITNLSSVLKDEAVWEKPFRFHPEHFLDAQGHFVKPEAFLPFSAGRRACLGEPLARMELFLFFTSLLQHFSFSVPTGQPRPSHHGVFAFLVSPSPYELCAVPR
UniProt P11712, whole entry, looked up: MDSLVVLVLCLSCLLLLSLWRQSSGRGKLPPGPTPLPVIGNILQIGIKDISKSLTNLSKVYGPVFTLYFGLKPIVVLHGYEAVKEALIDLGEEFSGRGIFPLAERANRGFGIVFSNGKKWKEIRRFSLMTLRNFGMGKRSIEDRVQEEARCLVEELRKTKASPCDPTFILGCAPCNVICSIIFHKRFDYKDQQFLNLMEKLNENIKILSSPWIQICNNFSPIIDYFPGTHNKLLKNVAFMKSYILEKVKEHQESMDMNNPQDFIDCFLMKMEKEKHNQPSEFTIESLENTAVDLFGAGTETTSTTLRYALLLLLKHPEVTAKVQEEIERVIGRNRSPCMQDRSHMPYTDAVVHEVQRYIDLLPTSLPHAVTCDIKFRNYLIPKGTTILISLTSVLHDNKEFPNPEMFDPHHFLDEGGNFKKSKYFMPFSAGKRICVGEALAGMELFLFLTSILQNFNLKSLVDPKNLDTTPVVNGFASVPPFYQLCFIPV

SMILES	Activity (Mus musculus [1]) [%]	concentration (Mus musculus [5]) [nM]	concentration (Mus musculus [7]) [nM]	Drug uptake (Brain [8]) [nmol/g]	t1/2 (Rattus norvegicus [9]) [h]	BPR [10]	BPR [11]	Drug uptake (Brain [12]) [nmol/g]	bioavailability (Rattus norvegicus [13]) [%]	Vdss (Rattus norvegicus [14]) [L/kg]	also measured
Cl.O=c1n(C[C@@H](O)CO)c2ccccc2n1C1CCN(C[C@H]2[C@H]3CC[C@H](C3)C23CC3)CC1 [listing 1 of 2 here]	85										
CCn1c(=O)n([C@@H]2CCN(CC3CCCCCCC3)C[C@H]2CO)c2ccccc21											Stability (Liver microsomes [2]): 0%; Activity (Canis familiaris): Non-toxic; bioavailability (Rattus norvegicus [3]): 7%; Stability (Liver microsomes [4]): 0%
O=c1n(C[C@@H](O)CO)c2ccccc2n1C1CCN(C[C@H]2[C@H]3CC[C@H](C3)C23CC3)CC1		0.087	0.19								IC50 (Cytochrome P450 1A2): > 100 µM; IC50 (Cytochrome P450 2C8): > 100 µM; IC50 [6]: 25 µM; IC50 (Cytochrome P450 3A4): > 100 µM; IC50 (Cytochrome P450 2D6): 16 µM; IC50 (Cytochrome P450 2C9): > 100 µM
Cl.O=c1n(C[C@H](O)CO)c2ccccc2n1C1CCN(C[C@H]2[C@H]3CC[C@H](C3)C23CC3)CC1	77			0.28	1.4	0.79	5.6	0.42	17	3.7	
O=c1n(C(CO)CO)c2ccccc2n1C1CCN(C[C@H]2[C@H]3CC[C@H](C3)C23CC3)CC1		0.1	0.54								
O=c1n(C[C@H](O)CO)c2ccccc2n1C1CCN(C[C@H]2[C@H]3CC[C@H](C3)C23CC3)CC1		0.078	0.35								
Cl.O=c1n(C(CO)CO)c2ccccc2n1C1CCN(C[C@H]2[C@H]3CC[C@H](C3)C23CC3)CC1	69			0.25	1.3	0.48	4.1	0.43	22	5.3	Stability (Liver microsomes [2]): 45%; Ratio (LLC-PK1 [15]): 2.8; Stability (Liver microsomes [4]): 74%; Ratio (LLC-PK1 [16]): 13.2
Cl.O=c1n(C[C@@H](O)CO)c2ccccc2n1C1CCN(C[C@H]2[C@H]3CC[C@H](C3)C23CC3)CC1 [listing 2 of 2 here]				0.19	1.1	1	6.4	0.56	33	4.8	

Source: ChEMBL document CHEMBL1158463 (J Med Chem, 2009)
